Calls of active or inactive are those of the source. No cut-off for these calls is given here.
Columns and labels:
[1] = test system: Protein smoothened (Homo sapiens), Q99835 [D473H]; assay: Displacement of [3H]cyclopamine from Smo D473H mutant expressed in U2OS cells up to 10 uM after 2 hrs by scintillation counting; assay type: cell-based
[2] = test system: Protein smoothened (Homo sapiens), Q99835 [D473H]; assay: Displacement of [3H]cyclopamine from Smo D473H mutant expressed in U2OS cells after 2 hrs by scintillation counting relative to control; assay type: cell-based

Amino acid sequences for entries named in this document (tags omitted).
Protein smoothened (Homo sapiens), Q99835, UniProt Q99835, whole entry D473H: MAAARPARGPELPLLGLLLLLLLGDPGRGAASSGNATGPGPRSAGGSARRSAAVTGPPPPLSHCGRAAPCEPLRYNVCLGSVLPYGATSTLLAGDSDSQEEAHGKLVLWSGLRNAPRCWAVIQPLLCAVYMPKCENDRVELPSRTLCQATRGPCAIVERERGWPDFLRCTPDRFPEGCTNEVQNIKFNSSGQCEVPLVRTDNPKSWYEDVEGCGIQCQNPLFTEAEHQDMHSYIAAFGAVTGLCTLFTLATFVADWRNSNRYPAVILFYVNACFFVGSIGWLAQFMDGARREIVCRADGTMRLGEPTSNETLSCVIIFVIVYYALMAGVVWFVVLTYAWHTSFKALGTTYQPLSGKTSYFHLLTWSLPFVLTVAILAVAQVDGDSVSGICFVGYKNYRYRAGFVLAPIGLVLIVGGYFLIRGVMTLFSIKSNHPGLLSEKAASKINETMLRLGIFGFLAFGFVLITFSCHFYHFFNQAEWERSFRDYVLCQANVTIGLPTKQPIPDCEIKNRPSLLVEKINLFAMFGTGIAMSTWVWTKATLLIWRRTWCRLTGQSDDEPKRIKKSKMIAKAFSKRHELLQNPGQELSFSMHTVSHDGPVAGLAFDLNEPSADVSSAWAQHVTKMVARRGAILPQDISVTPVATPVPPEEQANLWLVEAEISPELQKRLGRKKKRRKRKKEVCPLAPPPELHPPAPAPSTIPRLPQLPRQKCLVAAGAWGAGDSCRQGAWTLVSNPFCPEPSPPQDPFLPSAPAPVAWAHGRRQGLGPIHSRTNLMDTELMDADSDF

| Activity [1] | fold change (FC) [2] | Structure (SMILES) |
| --- | --- | --- |
| inactive | – | Cc1c(C(=O)Nc2ccc(N3C[C@@H](C)O[C@@H](C)C3)nc2)cccc1-c1ccc(OC(F)(F)F)cc1 |
| – | 13 | O=C(NC1CCN(Cc2ccc(N3CCC(NC(=O)c4cccc(-c5cccnc5)c4)CC3)nc2)CC1)c1cccc(-c2cccnc2)c1 |

From ChEMBL document CHEMBL2157904, “Identification of a novel Smoothened antagonist that potently suppresses Hedgehog signaling” (Bioorg Med Chem, 2012)
